# Measured affinities in a library of Ab-14 heavy chain variants

Binding partner: SARS-CoV-2 spike HR2 peptide, sequence PDVDLGDISGINAS.

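Phage display of a naive human antibody library on the peptide gave the parent. Variants in AAYL49 differ from the parent at up to three CDR positions; double and triple changes were sampled at random. The assay is AlphaSeq: two haploid yeast populations carry antibody and antigen on their surface. Mating (16 h, 30 °C) was followed by selection of diploids and sequencing of their barcodes. Each replicate has its own calibration line, from reference interactions of the BCL2 family. The assay was run in three technical replicates.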

Ab-14 is the parent antibody, in scFv form: VH, then the linker GGGGSGGGGSGGGGS, then VL. The light chain is unchanged in all variants.
VH: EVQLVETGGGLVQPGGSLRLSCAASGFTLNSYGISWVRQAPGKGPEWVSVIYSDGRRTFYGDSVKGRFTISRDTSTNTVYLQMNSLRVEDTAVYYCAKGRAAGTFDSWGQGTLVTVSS
VL: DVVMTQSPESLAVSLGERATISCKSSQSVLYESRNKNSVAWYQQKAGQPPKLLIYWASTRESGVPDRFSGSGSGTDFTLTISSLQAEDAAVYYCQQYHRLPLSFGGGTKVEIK

Each variant is given by its three heavy chain CDRs, as the data file delimits them; those of the parent are GFTLNSYGIS, VIYSDGRRTFYGDSVK, GRAAGTFDS. Every variant below is changed at G26 of the VH (sequential numbering). The read-out is the apparent dissociation constant on a log10 scale (nM): the lower, the stronger. A pair that was not seen in that replicate is written "ND"; this usually means weak binding, but a binder can also be missed. Empty control strains, which show no peptide, gave a signal in 15% of pairings with library AAYL49; the median was 4.06 and 95% of these signals were weaker than 2.83. No background was subtracted. The control count says in how many pairings with the empty strains this scFv gave a signal.

For DFTLNSYGIS | VIYHDGRRTFYPDSVK | GRAAGTFDS, the assay gave 4.02, ND, 4.44 (controls 0 of 9).
For LFTLNSYGIS | VIMSDGNRTFYGDSVK | GRAAGTFDS, the assay gave ND, ND, 4.67 (controls 1 of 9).
For TFTLNSYGIS | VIYSDGRRTFYGDSIK | GRRAGTFDS, the assay gave ND, ND, ND (controls 0 of 9).
For LATLNSYGIS | IIYSDGRRTFYGDSVK | GRAAGTFDS, the assay gave ND, 2.90, ND (controls 1 of 9).
For RFTLNSYGIS | VIYSDGRRWFYGDSVK | LRAAGTFDS, the assay gave ND, ND, ND (controls 0 of 9).
For MFTLNSYGIS | VIYSDGRRTFTGDSVK | GNAAGTFDS, the assay gave ND, ND, ND (controls 0 of 9).
For VFMLNSYGIS | VIYSDGRRTFYGDSVK | GRAAGTFDS, the assay gave ND, ND, ND (controls 0 of 9).
For DFTLNSYGIS | VFYSDGRYTFYGDSVK | GRAAGTFDS, the assay gave ND, ND, ND (controls 1 of 9).
For MFTLNSYGIS | VIYSDYRRTFYGISVK | GRAAGTFDS, the assay gave ND, ND, ND (controls 0 of 9).
For YFTLNSYGIS | VIYSDTRRTFYGDSVK | GRAAGTDDS, the assay gave ND, 4.98, ND (controls 0 of 9).
For VFTLWSYGIS | VIYSDGRRTFYGDSVK | GRAAGKFDS, the assay gave 3.83, 4.28, ND (controls 3 of 9).
For AFTLNSYSIS | VIYSDGRRTFYGDSVK | GRAAGTFDS, the assay gave ND, ND, ND (controls 0 of 9).
For CFTLNSYGIS | VGKSDGRRTFYGDSVK | GRAAGTFDS, the assay gave ND, ND, ND (controls 1 of 9).
For KFTLNSYGIS | VIYSDGRRTGYGDSVK | GRAAGIFDS, the assay gave 6.47, ND, ND (controls 3 of 9).
For SFTLNSYGIS | VIYSDGRRTFAGDSVK | YRAAGTFDS, the assay gave ND, 3.34, ND (controls 2 of 9).
For IFTLNSYGIS | VIYSDPRRTFYGDGVK | GRAAGTFDS, the assay gave ND, ND, 3.68 (controls 2 of 9).
For MFTLNSGGIS | VIYSDGRRTFYGDSVK | GRAAGTFIS, the assay gave 5.18, 4.36, 4.79 (controls 3 of 9).
For IFTLTSYGIS | VIYSDGRTTFYGDSVK | GRAAGTFDS, the assay gave ND, ND, 5.86 (controls 2 of 9).
For HFTLNSYGIS | VIYSDGRRTFYGFSVK | GRAAGTYDS, the assay gave 4.68, 3.89, 4.14 (controls 4 of 9).
For WFTLNSYGLS | VIYSDGRRTSYGDSVK | GRAAGTFDS, the assay gave ND, ND, ND (controls 0 of 9).
For VFHLNSYGIS | VIYQDGRRTFYGDSVK | GRAAGTFDS, the assay gave ND, ND, 3.37 (controls 3 of 9).
For STTLNSYGIS | VIYSDGRRTFYGDSVK | GRAAGLFDS, the assay gave ND, ND, ND (controls 0 of 9).
For RFTLNSYGIS | VIYSDGRRTFYGDSVK | GRAAGTFDS, the assay gave 1.60, 1.47, 1.64 (controls 1 of 9).
For FFTLNSYGII | VIYSDGRRTKYGDSVK | GRAAGTFDS, the assay gave 3.29, ND, ND (controls 1 of 9).
For PFTLNSYGIS | VIYSDGRRTFYGDSVK | GRAAGTFPS, the assay gave 1.93, 2.11, 2.27 (controls 1 of 9).
For SFTLNSYGSS | VIYEDGRRTFYGDSVK | GRAAGTFDS, the assay gave ND, ND, ND (controls 1 of 9).
For TFTLNSYGIS | VIYSDGRRTFYGHSVK | GRAAGTFDS, the assay gave 3.08, 2.38, 3.03 (controls 0 of 9).
For MFTLNSAGIS | VIYSDGRRTFYGDSVK | GYAAGTFDS, the assay gave ND, ND, ND (controls 0 of 9).
For HFTLNSYGIS | VIYSDGRRTPYGDRVK | GRAAGTFDS, the assay gave ND, ND, ND (controls 0 of 9).
For LFTLNSYGIS | VIYSDGRRTFYGDSVK | GRAACTFDC, the assay gave 2.14, 2.06, 2.47 (controls 5 of 9).
For AFTLNSYDIS | VIYSDGMRTFYGDSVK | GRAAGTFDS, the assay gave ND, 2.49, ND (controls 0 of 9).
For TFGLNSWGIS | VIYSDGRRTFYGDSVK | GRAAGTFDS, the assay gave ND, ND, ND (controls 0 of 9).
For VFTLCSYGIS | VIYSDGRRTFHGDSVK | GRAAGTFDS, the assay gave ND, 4.87, ND (controls 0 of 9).
For DFTLNSYGIS | VIYWDGRRTFYGDSVK | GRAAGTFDS, the assay gave 1.87, 1.43, ND (controls 0 of 9).
For TFTLNSYGIS | VYYSDGRRTFYGDSVK | GRKAGTFDS, the assay gave 4.87, 4.73, 5.63 (controls 3 of 9).
For EFTLNSYGIS | VICSDGRRTFYGDSVK | GRAAGTFDS, the assay gave ND, ND, ND (controls 1 of 9).
For EFTLNSYGIS | VIYSDERRTFYGDSVK | GRAAGTFDS, the assay gave 3.68, ND, ND (controls 5 of 9).

From the list, the first 6 with no signal in any replicate:

{"CDR-H1": "TFTLNSYGIS", "CDR-H2": "VIYSDGRRTFYGDSIK", "CDR-H3": "GRRAGTFDS", "replicates, log10 nM": "ND, ND, ND", "control signals": "0/9"}
{"CDR-H1": "RFTLNSYGIS", "CDR-H2": "VIYSDGRRWFYGDSVK", "CDR-H3": "LRAAGTFDS", "replicates, log10 nM": "ND, ND, ND", "control signals": "0/9"}
{"CDR-H1": "MFTLNSYGIS", "CDR-H2": "VIYSDGRRTFTGDSVK", "CDR-H3": "GNAAGTFDS", "replicates, log10 nM": "ND, ND, ND", "control signals": "0/9"}
{"CDR-H1": "VFMLNSYGIS", "CDR-H2": "VIYSDGRRTFYGDSVK", "CDR-H3": "GRAAGTFDS", "replicates, log10 nM": "ND, ND, ND", "control signals": "0/9"}
{"CDR-H1": "DFTLNSYGIS", "CDR-H2": "VFYSDGRYTFYGDSVK", "CDR-H3": "GRAAGTFDS", "replicates, log10 nM": "ND, ND, ND", "control signals": "1/9"}
{"CDR-H1": "MFTLNSYGIS", "CDR-H2": "VIYSDYRRTFYGISVK", "CDR-H3": "GRAAGTFDS", "replicates, log10 nM": "ND, ND, ND", "control signals": "0/9"}

From the AlphaSeq antibody data of Engelhart et al. 2022 (doi:10.1038/s41597-022-01779-4), copy in the FLAb collection.